Assays:
[1] = system: J774A.1 (mouse macrophage cell line); details: presence vs absence of folinic acid
[2] = Tolerated dose determination in uninfected mice; format: in vivo; details: 30 mg/kg ip for 5 consecutive days, uninfected BALB/c mice

Compound	effect of folinic acid on activity, J774A.1 [1]	tolerability [2]
c1ccc(CNc2nc(NCc3ccccc3)c3ccccc3n2)cc1 [Compound 10, N^2,N^4-Dibenzylquinazoline-2,4-diamine]	no antagonism	
CNc1nc(NCc2ccccc2)nc2ccccc12 [Compound 15, N^2-Benzyl-N^4-methylquinazoline-2,4-diamine]	no antagonism	well tolerated
CCc1nc(N)nc(N)c1-c1ccc(Cl)cc1 [pyrimethamine, reference compound]	antagonized significantly	
CCCCNc1nc(NCc2ccccc2)c2ccccc2n1 [Compound 13, N^4-Benzyl-N^2-butylquinazoline-2,4-diamine]	no antagonism	
CN(Cc1cnc2nc(N)nc(N)c2n1)c1ccc(C(=O)N[C@@H](CCC(=O)O)C(=O)O)cc1 [methotrexate, reference compound]	antagonized significantly	
CNc1nc(NCc2ccccc2)c2ccccc2n1 [Compound 12, N^4-Benzyl-N^2-methylquinazoline-2,4-diamine]	no antagonism	
CCCCNc1nc(NCc2ccccc2)nc2ccccc12 [Compound 16, N^2-Benzyl-N^4-butylquinazoline-2,4-diamine]	no antagonism	slowed breathing
Cc1ccc2c(NCc3ccco3)nc(NC(C)C)nc2c1 [Compound 23, N^4-(Furan-2-ylmethyl)-N^2-isopropyl-7-methylquinazoline-2,4-diamine]	no antagonism	hypoactivity

Reference: paper PMC4216219 (Journal of Medicinal Chemistry, 2014)
